Results: patent US12528818B2, “Compositions and methods for inhibition of RAS” (Leidos Biomedical Research, Inc., priority 2021, dated 2026)
pIC50: −log10 of the molar value.

Experiments:
[1] = biological target: GppNHp-loaded KRAS4b (amino acids 1-169) G12C/C118S protein (Homo sapiens, UniProt P01116, C118S/G12C); test: Covalent cysteine 12 modification by MALDI-TOF MS, GppNHp-loaded KRAS G12C; type: biochemical; conditions: 15 minutes reaction time, compound 95 or later using 1 μM proteins
[2] = biological target: Avi-KRAS G12C (1-169) GppNHp/RAF1 RBD-3xFLAG (52-151) (Homo sapiens, UniProt P01116, G12C); test: biochemical; conditions: Raf1-GppNHp-KRAS G12C disruption, Raf1 RBD-KRAS G12C-GppNHp disruption assay IC50
[3] = biological target: GDP-loaded KRAS4b (amino acids 1-169) G12C/C118S protein (Homo sapiens, UniProt P01116, C118S/G12C); test: Covalent cysteine 12 modification by MALDI-TOF MS, GDP-loaded KRAS G12C; type: biochemical; conditions: 15 minutes reaction time, compound 95 or later using 1 μM proteins

C=CC(=O)N1CC(Nc2nc(OC[C@@H]3C[C@@H](F)CN3C)nc3c(F)c(-c4ccc(F)c5sc(N)nc45)c(-c4ccoc4)cc23)C1 [Compound 95]
GppNHp-KRAS G12C percent of modification [1]: A (percent of modification ≥70%)
pIC50 [2]: > 6.30
GDP-KRAS G12C percent of modification [3]: A (percent of modification ≥70%)

C=CC(=O)N1CCN(c2nc(OC[C@@H]3C[C@@H](F)CN3C)nc3c(F)c(-c4ccc(F)c5sc(N)nc45)c(C(F)(F)F)cc23)CC1 [Compound 97]
GppNHp-KRAS G12C percent of modification [1]: C (10%≤percent of modification <50%)
pIC50 [2]: 5.30 to 6.30
GDP-KRAS G12C percent of modification [3]: A (percent of modification ≥70%)

C=CC(=O)N1CCN(c2nc(OC[C@@H]3CCCN3C)nc3c(F)c(-c4ccc(F)c5sc(N)nc45)c(-c4ccoc4)cc23)CC1 [Compound 98]
GppNHp-KRAS G12C percent of modification [1]: C (10%≤percent of modification <50%)
pIC50 [2]: 5.30 to 6.30
GDP-KRAS G12C percent of modification [3]: A (percent of modification ≥70%)

C=CC(=O)N1CCN(c2nc(OC[C@@H]3C[C@@H](F)CN3C)nc3c(F)c(-c4ccc(F)c5sc(N)nc45)c(-c4ccoc4)cc23)CC1 [Compound 99]
GppNHp-KRAS G12C percent of modification [1]: D (percent of modification <10%)
pIC50 [2]: 5.30 to 6.30
GDP-KRAS G12C percent of modification [3]: B (50≤percent of modification <70%)

CC#CC(=O)N1CC(N(C)c2nc(OCC34CCCN3CCC4)nc3c(F)c(-c4ccc(F)c5sc(N)nc45)c(Cl)cc23)C1 [Compound 106]
GppNHp-KRAS G12C percent of modification [1]: C (10%≤percent of modification <50%)
pIC50 [2]: > 6.30
GDP-KRAS G12C percent of modification [3]: A (percent of modification ≥70%)

C=CC(=O)N1CC(N(c2nc(OC[C@@H]3CCCN3C)nc3c(F)c(-c4ccc(F)c5sc(N)nc45)c(Cl)cc23)C2CC2)C1 [Compound 109]
GppNHp-KRAS G12C percent of modification [1]: B (50≤percent of modification <70%)
pIC50 [2]: > 6.30
GDP-KRAS G12C percent of modification [3]: A (percent of modification ≥70%)

C=CC(=O)N1CCN(c2nc(OC[C@@H]3CCCN3C)nc3c(F)c(-c4ccc(F)c5sc(N)nc45)c(-c4ccccc4)cc23)CC1 [Compound 114]
GppNHp-KRAS G12C percent of modification [1]: D (percent of modification <10%)
pIC50 [2]: < 4.70
GDP-KRAS G12C percent of modification [3]: D (percent of modification <10%)

C=CC(=O)N1CCN(c2nc(OCC34CCCN3CCC4)nc3c(F)c(-c4ccc(F)c5sc(N)nc45)c(-c4ccoc4)cc23)CC1 [Compound 119]
GppNHp-KRAS G12C percent of modification [1]: C (10%≤percent of modification <50%)
pIC50 [2]: 5.30 to 6.30
GDP-KRAS G12C percent of modification [3]: A (percent of modification ≥70%)

C=CC(=O)N1CC[C@@H]2[C@H]1CN2c1nc(OCC23CCCN2CCC3)nc2c(F)c(-c3ccc(F)c4sc(N)nc34)c(-c3ccoc3)cc12 [Compound 121]
GppNHp-KRAS G12C percent of modification [1]: C (10%≤percent of modification <50%)
pIC50 [2]: 5.30 to 6.30
GDP-KRAS G12C percent of modification [3]: A (percent of modification ≥70%)

C=CC(=O)N1CCN(c2nc(OC[C@@H]3CCCN3C)nc3c(F)c(-c4ccc(F)c5sc(N)nc45)c(-c4cccnc4)cc23)CC1 [Compound 126]
GppNHp-KRAS G12C percent of modification [1]: D (percent of modification <10%)
pIC50 [2]: < 4.70
GDP-KRAS G12C percent of modification [3]: D (percent of modification <10%)

CC#CC(=O)N1CCN(c2nc(OCC34CCCN3CCC4)nc3c(F)c(-c4ccc(F)c5sc(N)nc45)c(-c4ccoc4)cc23)CC1 [Compound 127]
GppNHp-KRAS G12C percent of modification [1]: D (percent of modification <10%)
pIC50 [2]: 4.70 to 5.30
GDP-KRAS G12C percent of modification [3]: A (percent of modification ≥70%)

C=CC(=O)N1C2CCC1CN(c1nc(OCC34CCCN3CCC4)nc3c(F)c(-c4ccc(F)c5sc(N)nc45)c(Cl)cc13)C2 [Compound 128]
GppNHp-KRAS G12C percent of modification [1]: D (percent of modification <10%)
pIC50 [2]: 5.30 to 6.30
GDP-KRAS G12C percent of modification [3]: A (percent of modification ≥70%)

CC#CC(=O)N1CC(N(C)c2nc(OC[C@@H]3CCCN3C)nc3c(F)c(-c4ccc(F)c5sc(N)nc45)c(C(F)(F)F)cc23)C1 [Compound 129]
GppNHp-KRAS G12C percent of modification [1]: D (percent of modification <10%)
pIC50 [2]: 5.30 to 6.30
GDP-KRAS G12C percent of modification [3]: A (percent of modification ≥70%)
